Results reported in US12564650B2, “Carbonic anhydrase IX-targeting radioactive diagnostic and therapeutic medicament and method for preparing same” (NORROY BIOSCIENCE CO., LTD., priority 2022, dated 2026).

Test system: renal clear cell carcinoma and metastases
Conditions: human, in vivo

^18F-FDG
PET/CT imaging findings: abnormal mass in right kidney and metastasis to both lungs and mediastinal lymph nodes
